Reference: patent US9176117B2, “Macrophage hazardous material detection” (dated 2015)
Some compounds may have been tested in ways that are not shown here.

Tested on: Sentinel Cells (SC), stationary macrophages
Assay: Sentinel Cell responses to energetic materials by real-time multi-label light microscopy (DIC, H33342 DNA, MitoTracker, ER-Tracker)

For `O=[N+]([O-])N1CN([N+](=O)[O-])CN([N+](=O)[O-])C1`, the “range of concentrations of EM in solution to which SC respond” value (“range of concentrations of EM” for short) was “ppb and ppt” and the “other observed Sentinel Cell responses” value (RDX 50 nm in solution) was “chromosome condensation; unscheduled dsDNA synthesis; increased nuclear dsDNA; arborized nuclei; large changes in cell morphology; distended mitochondria; loss of nuclear dsDNA; and leakage of dsDNA to cytosol and extracellular space”.

With `O=[N+]([O-])N1CN([N+](=O)[O-])CN([N+](=O)[O-])CN([N+](=O)[O-])C1` the “range of concentrations of EM” value was “ppb and ppt”, the “primary Sentinel Cell responses observed” value (HMX at 0.5 nm in solution) was “loss of nuclear dsDNA to cytoplasmic space, then to extracellular space; increase in extra-nuclear dsDNA; arborized nuclei and cell morphologies; ell pairs observed (low percentage)” and the “lower level of EM giving response types similar to RDX” value (HMX at 0.5 nm versus RDX 50 nm in solution) was 100 fold.

In the case of `Cc1c([N+](=O)[O-])cc([N+](=O)[O-])cc1[N+](=O)[O-]`, the “specific Sentinel Cell responses” value (TNT at 50 nm in solution) is reported as “micronuclei and apoptotic nuclear dsDNA arrangement/loss”.

`O=[N+]([O-])OCC(CO[N+](=O)[O-])O[N+](=O)[O-]` was tested, and the “primary Sentinel Cell responses observed” value (TNG at 0.5 nm in solution, FIG. 8) was “pronounced NOS activity, significant increases in cell size and membrane surface, pronounced hunting behavior, and levels of apoptosis”.

In the case of `O=[N+]([O-])OCC(CO[N+](=O)[O-])(CO[N+](=O)[O-])CO[N+](=O)[O-]`, the “range of concentrations of EM” value is reported as “ppb and ppt”, the “changes in membrane structure compared to control” value (PETN at 50 nm in solution, FIG. 3B) is reported as “significant membrane filigree and membrane blebs” and the “observed Sentinel Cell responses (flower plot)” value (PETN at 50 nm in solution, FIG. 3C) is reported as “increase in cytoplasmic NO levels, marked increases in nuclear dsDNA, induction of chromosome condensation, unscheduled DNA synthesis, induction of filigree deformations, fragility in cell membranes, and cell pairs observed at a low percentage”.
